Earlier results as cited in US20230204599A1, “TRIAGING METHOD USING CELL FREE NUCLEOSOME LEVELS” (Belgian Volition SRL (BE/BE), priority 2020, published 2023).

Test system: neutrophil cells
Settings: cited from earlier work

## C[C@@H](CN1CC(=O)NC(=O)C1)N1CC(=O)NC(=O)C1 [dexrazoxane]
  effect on NETosis: does not affect NETosis
